Assay results as given in patent US20250345446A1 (Draupnir Bio ApS, priority 2022, published 2025).

By UniProt entry, the sequences of proteins in these tests, tags left out. Chains listed by the source or under a name are the forms on record and can include a tag or linker.
UniProt Q99523, with tags, fused parts or gaps V650M: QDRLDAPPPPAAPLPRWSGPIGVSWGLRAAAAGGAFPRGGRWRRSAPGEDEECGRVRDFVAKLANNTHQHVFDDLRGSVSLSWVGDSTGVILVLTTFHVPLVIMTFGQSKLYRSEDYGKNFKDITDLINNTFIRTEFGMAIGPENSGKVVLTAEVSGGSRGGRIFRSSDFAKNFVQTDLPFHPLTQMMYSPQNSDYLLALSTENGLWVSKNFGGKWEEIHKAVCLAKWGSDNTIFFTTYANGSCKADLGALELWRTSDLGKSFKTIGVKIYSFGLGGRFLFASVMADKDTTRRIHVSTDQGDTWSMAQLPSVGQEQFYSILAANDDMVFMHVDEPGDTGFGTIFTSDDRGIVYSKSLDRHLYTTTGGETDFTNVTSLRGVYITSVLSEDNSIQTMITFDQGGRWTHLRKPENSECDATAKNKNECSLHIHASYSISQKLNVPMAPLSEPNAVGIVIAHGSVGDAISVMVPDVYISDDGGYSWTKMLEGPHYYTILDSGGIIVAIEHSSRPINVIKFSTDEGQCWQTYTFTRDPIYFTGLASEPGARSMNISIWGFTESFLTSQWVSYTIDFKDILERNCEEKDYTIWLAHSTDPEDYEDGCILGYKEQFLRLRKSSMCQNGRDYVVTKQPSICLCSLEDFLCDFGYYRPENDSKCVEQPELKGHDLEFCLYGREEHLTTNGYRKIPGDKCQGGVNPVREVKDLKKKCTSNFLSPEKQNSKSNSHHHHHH

Biological target: T1, soluble ectodomain of sortilin-6his (Homo sapiens, UniProt Q99523, V650M)
T1 construct: the soluble ectodomain of sortilin-6his is measured by microscale thermophoresis (MST)
Experiment: MST binding to soluble ectodomain of sortilin-6his
Conditions: Table 3, monofunctional peptides, read-out: KD score, binding to sortilin (Kd)

Kd: 0.25 to 2.5 µM
SMILES: CC(C)C[C@H](NC(=O)[C@H](CC(C)C)NC(=O)[C@H](CCC(N)=O)NC(=O)[C@@H](N)CC(C)C)C(=O)O [compound 40]
